# Experimental data: IntAct's records for PubMed 35512704
# B1: RAC-alpha serine/threonine-protein kinase (Homo sapiens), P31749 (parent)
# chain: MSDVAIVKEGWLHKRGEYIKTWRPRYFLLKNDGTFIGYKERPQDVDQREAPLNNFSVAQCQLMKTERPRPNTFIIRCLQWTTVIERTFHVETPEEREEWTTAIQTVADGLKKQEEEEMDFRSGSPSDNSGAEEMEVSLAKPKHRVTMNEFEYLKLLGKGTFGKVILVKEKATGRYYAMKILKKEVIVAKDEVAHTLTENRVLQNSRHPFLTALKYSFQTHDRLCFVMEYANGGELFFHLSRERVFSEDRARFYGAEIVSALDYLHSEKNVVYRDLKLENLMLDKDGHIKITDFGLCKEGIKDGATMKTFCGTPEYLAPEVLEDNDYGRAVDWWGLGVVMYEMMCGRLPFYNQDHEKLFELILMEEIRFPRTLGPEAKSLLSGLLKKDPKQRLGGGSEDAKEIMQHRFFAGIVWQHVYEKKLSPPFKPQVTSETDTRYFDEEFTAQMITITPPDQDDSMECVDSERRPHFPQFSYSASGTA
# partner: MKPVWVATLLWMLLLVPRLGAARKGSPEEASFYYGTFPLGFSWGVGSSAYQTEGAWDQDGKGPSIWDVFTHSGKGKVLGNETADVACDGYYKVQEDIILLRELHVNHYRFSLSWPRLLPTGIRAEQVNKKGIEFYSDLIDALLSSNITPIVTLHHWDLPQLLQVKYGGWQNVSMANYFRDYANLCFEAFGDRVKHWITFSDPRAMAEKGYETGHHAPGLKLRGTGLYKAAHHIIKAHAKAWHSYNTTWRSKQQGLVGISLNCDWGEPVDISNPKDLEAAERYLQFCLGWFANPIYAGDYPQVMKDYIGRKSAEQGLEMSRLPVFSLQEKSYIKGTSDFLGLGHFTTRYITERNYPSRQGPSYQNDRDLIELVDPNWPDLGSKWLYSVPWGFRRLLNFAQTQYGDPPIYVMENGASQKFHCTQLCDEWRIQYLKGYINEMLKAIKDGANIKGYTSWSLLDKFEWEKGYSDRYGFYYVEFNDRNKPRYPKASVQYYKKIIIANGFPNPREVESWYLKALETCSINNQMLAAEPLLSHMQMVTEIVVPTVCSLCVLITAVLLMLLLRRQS
# B2: RAC-alpha serine/threonine-protein kinase (Homo sapiens), P31749 (parent)
# chain: B1 chain
# partner: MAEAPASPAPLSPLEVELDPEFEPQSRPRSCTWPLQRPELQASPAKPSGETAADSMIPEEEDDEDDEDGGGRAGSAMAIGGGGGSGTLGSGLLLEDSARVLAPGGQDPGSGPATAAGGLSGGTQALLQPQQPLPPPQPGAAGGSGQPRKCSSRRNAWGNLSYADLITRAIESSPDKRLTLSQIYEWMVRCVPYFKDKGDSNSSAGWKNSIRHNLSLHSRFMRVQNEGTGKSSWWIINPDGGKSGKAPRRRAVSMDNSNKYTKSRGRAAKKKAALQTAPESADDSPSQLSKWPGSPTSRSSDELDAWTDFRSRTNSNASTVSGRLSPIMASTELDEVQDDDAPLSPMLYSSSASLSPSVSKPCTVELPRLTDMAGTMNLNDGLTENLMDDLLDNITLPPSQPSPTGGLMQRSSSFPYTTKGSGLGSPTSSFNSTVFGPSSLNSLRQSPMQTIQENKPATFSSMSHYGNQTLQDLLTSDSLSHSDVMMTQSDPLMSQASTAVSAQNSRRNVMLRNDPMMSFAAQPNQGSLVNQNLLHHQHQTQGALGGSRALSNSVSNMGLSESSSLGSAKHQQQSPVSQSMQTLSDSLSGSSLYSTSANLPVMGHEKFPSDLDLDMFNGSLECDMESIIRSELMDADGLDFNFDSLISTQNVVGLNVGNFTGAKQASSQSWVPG
# B3: RAC-alpha serine/threonine-protein kinase (Homo sapiens), P31749 (parent)
# chain: B1 chain
# partner: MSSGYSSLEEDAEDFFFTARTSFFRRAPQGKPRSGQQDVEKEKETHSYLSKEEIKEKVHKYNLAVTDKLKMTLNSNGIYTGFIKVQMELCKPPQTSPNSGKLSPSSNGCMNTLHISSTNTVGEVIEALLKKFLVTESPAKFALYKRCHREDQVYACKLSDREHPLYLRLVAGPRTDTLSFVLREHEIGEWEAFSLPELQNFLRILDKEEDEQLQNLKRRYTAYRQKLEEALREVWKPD
# B4: RAC-alpha serine/threonine-protein kinase (Homo sapiens), P31749 (parent)
# chain: B1 chain
# partner: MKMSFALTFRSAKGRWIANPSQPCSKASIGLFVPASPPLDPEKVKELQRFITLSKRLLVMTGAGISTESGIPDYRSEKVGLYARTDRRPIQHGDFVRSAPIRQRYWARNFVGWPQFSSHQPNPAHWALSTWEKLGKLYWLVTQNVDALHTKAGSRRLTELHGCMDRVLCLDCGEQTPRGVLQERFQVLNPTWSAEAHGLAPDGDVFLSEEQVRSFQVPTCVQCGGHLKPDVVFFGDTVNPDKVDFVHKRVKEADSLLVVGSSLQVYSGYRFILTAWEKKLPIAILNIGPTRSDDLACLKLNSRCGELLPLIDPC
# B5: RAC-alpha serine/threonine-protein kinase (Homo sapiens), P31749 (parent)
# chain: B1 chain
# partner: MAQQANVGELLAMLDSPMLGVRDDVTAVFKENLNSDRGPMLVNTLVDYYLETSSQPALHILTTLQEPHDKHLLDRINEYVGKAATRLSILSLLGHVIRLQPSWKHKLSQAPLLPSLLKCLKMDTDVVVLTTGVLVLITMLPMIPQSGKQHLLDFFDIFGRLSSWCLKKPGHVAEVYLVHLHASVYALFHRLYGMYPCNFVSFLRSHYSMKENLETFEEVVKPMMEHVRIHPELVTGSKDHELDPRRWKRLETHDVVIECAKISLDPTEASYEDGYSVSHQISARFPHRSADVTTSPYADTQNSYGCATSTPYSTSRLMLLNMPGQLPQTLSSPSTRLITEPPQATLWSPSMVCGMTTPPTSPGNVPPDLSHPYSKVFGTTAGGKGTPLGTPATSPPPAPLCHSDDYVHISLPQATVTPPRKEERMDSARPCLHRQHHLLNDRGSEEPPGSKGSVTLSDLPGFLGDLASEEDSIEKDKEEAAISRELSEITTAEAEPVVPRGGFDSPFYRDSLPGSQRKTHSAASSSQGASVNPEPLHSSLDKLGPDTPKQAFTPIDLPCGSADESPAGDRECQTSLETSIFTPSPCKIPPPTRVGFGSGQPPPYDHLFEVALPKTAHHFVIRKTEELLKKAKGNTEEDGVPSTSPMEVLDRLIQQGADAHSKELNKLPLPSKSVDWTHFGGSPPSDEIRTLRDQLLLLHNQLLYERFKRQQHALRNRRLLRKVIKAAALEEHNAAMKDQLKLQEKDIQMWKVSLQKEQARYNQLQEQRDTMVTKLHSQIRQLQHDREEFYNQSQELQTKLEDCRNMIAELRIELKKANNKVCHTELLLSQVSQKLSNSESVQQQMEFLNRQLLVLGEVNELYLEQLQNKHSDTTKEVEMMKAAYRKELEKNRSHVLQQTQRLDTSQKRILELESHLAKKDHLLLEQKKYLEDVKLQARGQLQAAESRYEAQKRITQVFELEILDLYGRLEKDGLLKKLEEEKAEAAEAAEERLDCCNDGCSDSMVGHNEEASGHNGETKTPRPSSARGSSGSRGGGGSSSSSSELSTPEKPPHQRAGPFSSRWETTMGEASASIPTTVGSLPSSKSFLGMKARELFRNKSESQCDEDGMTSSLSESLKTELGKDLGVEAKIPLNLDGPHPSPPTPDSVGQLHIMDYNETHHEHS
# B6: RAC-alpha serine/threonine-protein kinase (Homo sapiens), P31749 (parent)
# chain: B1 chain
# partner: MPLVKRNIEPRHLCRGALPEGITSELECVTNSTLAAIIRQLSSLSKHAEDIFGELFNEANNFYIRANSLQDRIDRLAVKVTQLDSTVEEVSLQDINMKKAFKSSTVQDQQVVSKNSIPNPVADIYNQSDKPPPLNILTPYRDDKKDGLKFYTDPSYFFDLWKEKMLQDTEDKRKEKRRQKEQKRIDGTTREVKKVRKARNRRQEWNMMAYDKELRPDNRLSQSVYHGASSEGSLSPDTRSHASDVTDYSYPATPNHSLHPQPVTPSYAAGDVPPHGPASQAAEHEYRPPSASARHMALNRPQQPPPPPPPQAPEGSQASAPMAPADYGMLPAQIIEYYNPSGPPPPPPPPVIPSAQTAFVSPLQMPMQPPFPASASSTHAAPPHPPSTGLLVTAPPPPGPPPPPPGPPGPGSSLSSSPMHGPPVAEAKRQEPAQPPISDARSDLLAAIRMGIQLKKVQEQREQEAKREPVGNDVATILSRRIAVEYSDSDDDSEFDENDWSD
# B7: RAC-alpha serine/threonine-protein kinase (Homo sapiens), P31749 (parent)
# chain: B1 chain
# partner: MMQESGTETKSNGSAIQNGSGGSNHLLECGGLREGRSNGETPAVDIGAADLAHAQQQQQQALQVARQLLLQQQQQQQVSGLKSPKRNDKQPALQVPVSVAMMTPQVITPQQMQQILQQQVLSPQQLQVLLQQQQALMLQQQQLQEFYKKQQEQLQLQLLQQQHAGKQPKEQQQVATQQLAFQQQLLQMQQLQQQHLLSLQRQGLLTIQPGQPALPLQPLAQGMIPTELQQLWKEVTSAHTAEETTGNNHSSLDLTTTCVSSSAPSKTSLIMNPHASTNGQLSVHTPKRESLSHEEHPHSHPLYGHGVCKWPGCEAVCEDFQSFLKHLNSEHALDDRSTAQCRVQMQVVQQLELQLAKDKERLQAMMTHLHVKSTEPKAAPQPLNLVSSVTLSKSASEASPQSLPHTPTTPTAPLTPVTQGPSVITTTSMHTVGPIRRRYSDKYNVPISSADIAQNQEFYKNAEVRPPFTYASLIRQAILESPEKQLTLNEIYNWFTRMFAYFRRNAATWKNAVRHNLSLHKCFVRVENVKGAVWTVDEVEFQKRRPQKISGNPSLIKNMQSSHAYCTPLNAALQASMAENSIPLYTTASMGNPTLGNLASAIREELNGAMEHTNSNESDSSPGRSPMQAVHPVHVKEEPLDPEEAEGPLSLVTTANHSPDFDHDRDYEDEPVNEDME
# B8: RAC-alpha serine/threonine-protein kinase (Homo sapiens), P31749 (parent)
# chain: B1 chain
# partner: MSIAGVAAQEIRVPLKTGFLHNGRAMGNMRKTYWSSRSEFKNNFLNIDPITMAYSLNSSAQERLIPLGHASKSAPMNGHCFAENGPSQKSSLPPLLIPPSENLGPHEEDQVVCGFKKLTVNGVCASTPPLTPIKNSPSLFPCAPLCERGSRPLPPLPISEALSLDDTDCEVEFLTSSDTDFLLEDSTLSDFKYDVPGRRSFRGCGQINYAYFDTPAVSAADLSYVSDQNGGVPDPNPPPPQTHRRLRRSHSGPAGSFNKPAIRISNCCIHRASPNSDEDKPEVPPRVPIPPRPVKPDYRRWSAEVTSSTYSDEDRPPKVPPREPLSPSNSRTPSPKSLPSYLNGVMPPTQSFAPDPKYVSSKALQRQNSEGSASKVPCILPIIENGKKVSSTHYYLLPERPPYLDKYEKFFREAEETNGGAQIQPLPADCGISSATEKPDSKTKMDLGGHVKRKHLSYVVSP
# Variants of: B1
# Details: with lctl_human LCTL
row,Variant,effect of a mutation on the interaction
1,E17K,with no effect

# Variants of: B2
# Details: with foxo3_human FOXO3, O43524
row,Variant,effect of a mutation on the interaction
1,E17K,disrupting interaction strength

# Variants of: B3
# Details: with rasf3_human RASSF3, Q86WH2
row,Variant,effect of a mutation on the interaction
1,E17K,causing an interaction

# Variants of: B4
# Details: with sir4_human SIRT4, Q9Y6E7
row,Variant,effect of a mutation on the interaction
1,E17K,causing an interaction

# Variants of: B4
# Details: with sir4_human SIRT4, Q9Y6E7
# Remark: another data set of the same source
row,Variant,effect of a mutation on the interaction
1,E17K,increasing interaction strength

# Variants of: B5
# Details: with tsc1_human TSC1, Q92574
row,Variant,effect of a mutation on the interaction
1,E17K,with no effect

# Variants of: B6
# Details: with wasf3_human WASF3, Q9UPY6
row,Variant,effect of a mutation on the interaction
1,E17K,with no effect

# Variants of: B7
# Details: with foxp1_human FOXP1, Q9H334
row,Variant,effect of a mutation on the interaction
1,E17K,causing an interaction

# Variants of: B8
# Details: with errfi_human ERRFI1, Q9UJM3
row,Variant,effect of a mutation on the interaction
1,E17K,causing an interaction

# Variants of: B8
# Details: with errfi_human ERRFI1, Q9UJM3
# Remark: another data set of the same source
row,Variant,effect of a mutation on the interaction
1,E17K,increasing interaction strength
